Screens: PubChem, Broad Institute
INS-1E GSIS act: primary screen for activators of insulin secretion dependent on glucose, INS-1E cells, GLuc reporter luminescence | 0.61% of 370,000 active | AID 743287 | activation, % at 16.6 µM | INS-1E GLuc reporter insulin secretion, 2-3 h;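 active = lowest replicate activation of at least 40%, so every replicate reaches that level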;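 also: 0% = median of neutral control wells and 100% = median of IBMX positive control wells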
SR-BI HDL uptake: blocks mouse SR-BI lipid uptake from DiI-HDL; Q61009; ldlA[mSR-BI] CHO cells, DiI-HDL uptake fluorescence, 3 h; inhibition, % at 12.5 µM; 0.96% of 320,000 active; AID 488896;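 active = mean replicate inhibition of at least 70% and a set share of replicates each scoring 70 or more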;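 also: 0% = median of neutral control wells and 100% = median of positive control wells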
Yeast UUG start-1: modulators of start codon recognition fidelity in yeast; AID 602363; activity score, % at 18.7 µM; S. cerevisiae UUG-firefly luciferase reporter, luminescence/redox ratio; actives 0.13% (n = 350,000);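 active = replicate mean at a twofold rise or more, about +100% in these data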;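 note: firefly luciferase made from a UUG start codon reports start codon fidelity; reporter light over untreated wells divided by growth signal over untreated wells; some hits fall short of that in this replicate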
SR-BI DiI-HDL act: activators of SR-BI mediated HDL lipid uptake; CHO ldlA[mSR-BI] cells, DiI-HDL uptake fluorescence, 3 h; 100 = double the neutral-control signal; 0.096% of 320,000 active; activation, % at 12.5 µM; AID 504775;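 active = mean replicate activation of at least 60% and every replicate at or above 60%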;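 also: 0% = median plate neutral-control signal and 100% = twice that signal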
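Assay system: LDL receptor-deficient CHO ldlA cells overexpressing murine SR-BI / Medium: BSA-supplemented, HEPES-buffered Ham's F12, pH 7.4 / Probe or stimulus: DiI-labelled HDL at 10 µg/mL final / Timing: compound with DiI-HDL co-incubation, 3 h at 37 °C / Technique: bottom-read cell fluorescence after medium removal, ex 550/em 595 nm / Measure: HDL uptake via cellular fluorescence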
Yeast UUG start-2: alters UUG start codon use in yeast; S. cerevisiae UUG-start firefly luciferase, luminescence, 4 h; 100% means double the DMSO signal; AID 652061; activation, % at 38 µM; 540 tested, under 10 active; shares compounds with Yeast UUG start-1;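 active = signal increase whose fitted curve reaches an absolute level of 40 at a concentration under 10 µM; inactive = activity opposite to the expected increase, or the rest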
* = called active by the depositor; i = inactive; . = no result given. In the library only some 1.3% were active in any assay of this set; here they are far more common.

Results follow in this order: Yeast UUG start-1 | SR-BI HDL uptake | INS-1E GSIS act | Yeast UUG start-2 | SR-BI DiI-HDL act
1: C[C@@H]1CN([C@@H](C)CO)C(=O)c2cc(C#CC3CCCC3)cnc2O[C@H]1CN(C)C(=O)Nc1ccccc1
→ 157* | . | -5 | i | .
2: C[C@H](CO)N1C[C@H](C)[C@@H](CN(C)C(=O)Nc2ccccc2)Oc2ncc(C#CC3CCCC3)cc2C1=O
→ 30 | . | -21 | . | .
3: CC(C)NC(=O)N(C)C[C@@H]1Oc2ccc(NC(=O)Cc3cn(C)c4ccccc34)cc2C(=O)N([C@H](C)CO)C[C@@H]1C
→ 11 | . | -9 | . | .
4: Cc1ccc(S(=O)(=O)N[C@@H]2CC[C@H](CCNC(=O)C3CCC3)O[C@@H]2CO)cc1
→ -1 | . | 8 | . | .
5: CCOc1ccc(CCNS(=O)(=O)c2c(C)cc(C)cc2C)cc1OCC
→ . | . | . | i | .
6: O=C(C[C@H]1C[C@H]2c3cc(NC(=O)Cc4ccncc4)ccc3O[C@H]2[C@H](CO)O1)NCCc1ccccc1
→ . | . | 2 | . | .
7: COc1cc(C2CC(=O)C=C(O)C2)cc(OC)c1OC (stereo unspecified)
→ 516* | -12 | 21 | 0 | 12
8: Cc1cc(C(=O)CSc2nnc(-c3ccncc3)n2-c2ccccc2)c(C)n1C
→ . | 16 | . | 7 | -16
9: Cc1cc(C(=O)CSc2nnc(-c3ccccc3)n2-c2ccccc2)c(C)n1-c1ncn[nH]1
→ 653* | 8 | . | 11 | -8
10: CCCn1c(C)cc(C(=O)CSc2nc3ccccc3c(=O)n2Cc2ccco2)c1C
→ -21 | 8 | 9 | 15 | -8
11: NC(=O)CSc1nc2ccccc2c(=O)n1Cc1ccco1
→ -13 | . | . | . | .
12: Cc1cc(C(=O)CSc2nnc(-c3cccnc3)n2-c2ccccc2F)c(C)n1C
→ -5 | -10 | . | 9 | 10
13: CC(=O)N(C)C[C@H]1Oc2cc(Br)ccc2S(=O)(=O)N([C@H](C)CO)C[C@H]1C
→ 3 | . | 10 | . | .
14: CCC(=O)Nc1ccc2c(c1)C(=O)N(C)C[C@H](OC)[C@@H](C)CN(C(=O)CN(C)C)[C@H](C)CO2
→ . | . | 12 | . | .
15: CC(=O)N(C)C[C@@H]1Oc2cc(C#Cc3ccccc3)ccc2S(=O)(=O)N([C@H](C)CO)C[C@@H]1C
→ 12 | . | -28 | . | .

4 of the entries above in order of their number in SR-BI HDL uptake, largest number first:
Results follow in this order: Yeast UUG start-1 | SR-BI HDL uptake | INS-1E GSIS act | Yeast UUG start-2 | SR-BI DiI-HDL act
8: Cc1cc(C(=O)CSc2nnc(-c3ccncc3)n2-c2ccccc2)c(C)n1C
→ . | 16 | . | 7 | -16
10: CCCn1c(C)cc(C(=O)CSc2nc3ccccc3c(=O)n2Cc2ccco2)c1C
→ -21 | 8 | 9 | 15 | -8
12: Cc1cc(C(=O)CSc2nnc(-c3cccnc3)n2-c2ccccc2F)c(C)n1C
→ -5 | -10 | . | 9 | 10
7: COc1cc(C2CC(=O)C=C(O)C2)cc(OC)c1OC (stereo unspecified)
→ 516* | -12 | 21 | 0 | 12

Following part:
Results follow in this order: Yeast UUG start-1 | SR-BI HDL uptake | INS-1E GSIS act | Yeast UUG start-2 | SR-BI DiI-HDL act
16: Cc1cc(C(=O)CSc2nnc(-c3ccccc3)n2C)c(C)n1C
→ -8 | -7 | . | -7 | 7
17: COCC(C)n1c(SCC(=O)c2cc(C)n(C)c2C)nc2ccccc2c1=O (stereo unspecified)
→ 1 | 23 | 17 | -1 | -23
18: C/C(=N/NC(=O)CNC(=O)c1ccncc1)c1ccco1
→ 180* | 5 | 4 | 8 | -5
19: O=C(NCc1ccccn1)c1c(-c2ccccc2)sc2ccccc12
→ 62* | 9 | . | 4 | 0
20: Cc1noc(C)c1S(=O)(=O)Nc1ccc2c(c1)C(=O)N([C@H](C)CO)C[C@H](C)[C@@H](CN(C)C(=O)CCCN(C)C)OCCCC[C@H](C)O2
→ 0 | . | 43 | . | .
21: C[C@@H]1CN([C@@H](C)CO)C(=O)c2cc(-c3ccncc3)cnc2O[C@@H]1CN(C)S(=O)(=O)c1ccc(F)cc1
→ . | . | 20 | . | .
22: Cc1ccc(S(=O)(=O)N(C)C[C@H]2Oc3ncc(Br)cc3C(=O)N([C@@H](C)CO)C[C@H]2C)cc1
→ 108* | . | 23 | i | .
23: Cc1ccc(S(=O)(=O)N(C)C[C@@H]2Oc3ncc(-c4ccncc4)cc3C(=O)N([C@@H](C)CO)C[C@H]2C)cc1
→ 200* | . | -1 | i | .
24: Cc1ccc(S(=O)(=O)N(C)C[C@H]2Oc3ncc(Br)cc3C(=O)N([C@@H](C)CO)C[C@@H]2C)cc1
→ 3 | . | -21 | . | .
25: O=C(C[C@H]1C=C[C@@H](NC(=O)C2CC2)[C@@H](CO)O1)NCc1ccccc1Cl
→ 8 | . | -7 | . | .
26: COc1cccc(C(=O)N2CCN(C(=O)c3cccc4ccccc34)CC2)c1OC
→ -1 | 13 | -9 | . | -13
27: COc1ccc(CN2CCN(C(=O)c3cccc4ccccc34)CC2)c(OC)c1OC
→ 146* | 3 | . | -1 | -3
28: Cc1noc(C)c1S(=O)(=O)Nc1ccc2c(c1)C(=O)N([C@H](C)CO)C[C@@H](C)[C@H](CN(C)CC1CCCCC1)OCCCC[C@@H](C)O2
→ 11 | . | -14 | . | .
29: CC(C)(C)c1ccc(C(=O)N2CCCCCC2=O)cc1
→ 279* | -11 | . | 9 | 11
30: O=C1CCCCCN1C(=O)c1ccccc1
→ . | -6 | . | . | 6

Remaining list, next part.
Results follow in this order: Yeast UUG start-1 | SR-BI HDL uptake | INS-1E GSIS act | Yeast UUG start-2 | SR-BI DiI-HDL act
31: CC=Cc1ccc2n(c1=O)C[C@@H]1[C@@H](CO)[C@H](C(=O)NCC3CC3)N(Cc3ccncc3)[C@H]21 (mixture of isomers)
→ 13 | . | 15 | . | .
32: COc1ccccc1CN1[C@@H]2CN(C(=O)C3CCC3)c3ccccc3[C@@H]2[C@@H]1CO
→ 128* | . | 26 | i | .
33: O=C(C1CCCC1)N1C[C@H]2[C@@H](c3ccccc31)[C@H](CO)N2C(=O)Cc1ccccn1
→ -8 | . | -13 | . | .
34: O=C(C1CCC1)N1C[C@@H]2[C@H](c3ccccc31)[C@H](CO)N2C(=O)Cc1ccccn1
→ 111* | . | -3 | i | .
35: COc1ccccc1CN1[C@@H]2CN(C(=O)C3CCCC3)c3ccccc3[C@@H]2[C@@H]1CO
→ 1 | . | 8 | . | .
36: O=C(C1CCC1)N1C[C@H]2[C@@H](c3ccccc31)[C@H](CO)N2C(=O)Cc1ccccn1
→ 130* | . | 1 | i | .
37: Cc1noc(C)c1NC(=O)Nc1ccc2c(c1)C(=O)N([C@H](C)CO)C[C@@H](C)[C@@H](CN(C)C)OCCCC[C@@H](C)O2
→ -1 | . | 16 | . | .
38: COc1ccccc1S(=O)(=O)N(C)C[C@@H]1Oc2cc(C#CCC(C)C)ccc2S(=O)(=O)N([C@@H](C)CO)C[C@H]1C
→ -6 | . | -20 | . | .
39: CCCCC12CN3CC(C)(CN(C1)C3c1ccc([N+](=O)[O-])o1)C2=O (stereo unspecified)
→ 146* | -3 | . | 2 | 3
40: CCCC12CN3CC(C)(CN(C1)C3c1ccc([N+](=O)[O-])o1)C2=O (stereo unspecified)
→ -19 | -7 | 4 | . | 7
